# Data reported in patent US20070207975A1, “Materials and methods for treating and preventing Her-2/neu overexpressing, FAS-elevated cancer cells” (EVANSTON NORTHWESTERN HEALTHCARE, priority 2006, published 2007).
# Columns and labels:
# Assay type in all cases: cell-based, human
# PARP = assay: Western blot of p85 PARP cleavage fragment; settings: BT-474; 72 hours
# Description: FIG. 6. […] After 72 hours, a TUNEL analysis was performed using the DeadEnd® Fluorometric TUNEL System (Promega Inc.) according to the manufacturer's protocol. The immunofluorescence photomicrographs of cells undergoing apoptosis (green staining) and the corresponding DAPI-counterstained photomicrographs are shown. […] Equal amounts of total protein (50 μg per lane) were subjected to Western blot analyses with a specific antibody against the p85 fragment of PARP, and then re-probed with a β-actin antibody. […] Similar results were obtained in three independent experiments. […] For each pair of columns, the height of the columns on the left represents the sum of the effect of each agent alone and, therefore, the expected apoptotic cell death if their effect was additive when used in combination. […]
# (§1) The lysates were cleared by centrifugation in an Eppendorf tube (15 minutes at 14,000 r.p.m. at 4° C.). Protein content was determined against a standardized control using the Pierce protein assay kit (Rockford, Ill.). […] The membranes were washed in TBS-T, horseradish peroxidase-conjugated secondary antibodies (Jackson Immunoresearch Laboratories) in TBS-T were added for 1 hour, and immunoreactive bands were detected by enhanced chemiluminescence reagent (Pierce). […] Densitometric values of protein bands were quantified using Scion Imaging Software (Scion Corp., Frederick, Md.).
# [1] = test system: phospho-MAPK and phospho-Ser^473 AKT; assay: Western blot of phospho-MAPK and phospho-AKT; settings: BT-474; 48 hours; OA 5 μM, trastuzumab 10 μg/ml in combination
# Description: FIG. 8. Exogenous supplementation with OA enhanced trastuzumab-induced inhibition of AKT and MAPK phosphoproteins. […] Equal amounts of total protein (25 mg per lane) were subjected to Western blot analyses with anti-phospho-AKT^Ser473 or anti-phospho-MAPK antibodies, and then re-probed with anti-AKT, anti-MAPK and β-actin antibodies. […] Similar results were obtained in three independent experiments.
# as §1, with “Ill.). Equal amounts of protein were heated in SDS sample buffer (Laemli buffer) for 10 minutes at 70° C., subjected to electrophoresis on either 3-8% NuPAGE or 10% SDS-PAGE (p27^Kip1, ^PARP, MAPK and AKT), and then transferred to nitrocellulose membranes.” for “Ill.).”
# SK-Br3 and BT-474 cells = assay: Anchorage-dependent cell proliferation (Coulter Counter); settings: low concentrations of OA, increasing concentrations of trastuzumab, or combination, 6 days
# Description: FIG. 3. […] (A) Left panel: exponentially growing SK-Br3 and BT-474 cells were trypsinized and plated in 24-well plates at a density of 10,000 cells/well. Cells were incubated for 24 hours to allow for attachment and starved for serum overnight, after which a zero time point was determined. Cells were treated with OA, trastuzumab, or combinations of these compounds, as specified. Cells were counted at days 0, 3 and 6 with a Coulter Counter. All assays were performed three times in triplicate. The data are presented as mean number of cells×10^4/well (columns)±SD (bars) after 6 days treatment. […] Colony formation (≧50 μm) was assessed using a colony counter. Each experimental value represents the mean colony number (columns)±SD (bars) from three separate experiments in which triplicate dishes were counted. […]
# SK-Br3 and BT-474 cells exponentially growing in IMEM-5% FBS were trypsinized and re-plated in 24-well plates at a density of 10,000 cells/well. Cells were incubated for 24 hours to allow for attachment, after which a zero time point was determined. […] Cell number was determined at days 0, 3 and 6 with a Coulter Counter (Coulter Electronics, Inc., Hialeah, Fla.). […]
substance,measurement,setting,value
"trastuzumab: humanized monoclonal IgG1, binding with high affinity to the ectodomain of p185^Her-2/neu [reference compound]",p85 PARP degradation product,PARP,small amount
same,"active MAPK and active AKT (phospho-MAPK, phospho-Ser^473 AKT)",[1],significantly inhibited MAPK as well as AKT function
same,anchorage-dependent cell growth,SK-Br3 and BT-474 cells,significantly decreased
